Assay results taken from patent publication US8652473B2, “Antibodies to EGF receptor epitope peptides and uses thereof” (Ludwig Institute for Cancer Research Ltd., priority 2004, dated 2014).

Test system: internalization of the EGFR
Experiment: EGFR internalization during ligand binding assay
Details: 30 μM Phenylarsine oxide; data not shown

O=[As]c1ccccc1 (stereo not shown)
internalization of the EGFR: > 1%
